± gives the uncertainty stated by the source.
Assay: xn = mol fraction of the nth substance listed

CCC[N+](CCC)(CCC)CCC.[Br-] + OCC(O)CO
Conditions	electrical conductivity [S/m]	viscosity [mPa·s]
292.9 K, 101 kPa, x2 = 0.6667	0.0179 ± 0.0036	–
293 K, 101 kPa, x2 = 0.75	0.0187 ± 0.0037	–
293.2 K, 101 kPa, x2 = 0.8	0.0154 ± 0.0031	–
294 K, 101 kPa, x2 = 0.6667	–	86 ± 26
294.4 K, 101 kPa, x2 = 0.75	–	56 ± 17
296.8 K, 101 kPa, x2 = 0.8	–	41 ± 12
302.9 K, 101 kPa, x2 = 0.6667	0.0399 ± 0.008	–
303 K, 101 kPa, x2 = 0.75	0.0358 ± 0.0072	–
303.1 K, 101 kPa, x2 = 0.8	0.0334 ± 0.0067	–
303.6 K, 101 kPa, x2 = 0.75	–	41 ± 12
303.6 K, 101 kPa, x2 = 0.8	–	32.7 ± 9.8
303.8 K, 101 kPa, x2 = 0.6667	–	59 ± 18
313 K, 101 kPa, x2 = 0.6667	0.068 ± 0.014	–
313 K, 101 kPa, x2 = 0.75	0.059 ± 0.012	–
313.1 K, 101 kPa, x2 = 0.8	0.055 ± 0.011	–
313.7 K, 101 kPa, x2 = 0.6667	–	35 ± 11
313.7 K, 101 kPa, x2 = 0.8	–	21.2 ± 6.4
313.9 K, 101 kPa, x2 = 0.75	–	25.3 ± 7.6
318.15 K, 100 kPa, x1 = 0.333	–	221 ± 15
322.9 K, 101 kPa, x2 = 0.6667	0.11 ± 0.022	–
323.2 K, 101 kPa, x2 = 0.75	0.092 ± 0.018	–
323.2 K, 101 kPa, x2 = 0.8	0.09 ± 0.018	–
323.7 K, 101 kPa, x2 = 0.75	–	17.6 ± 5.3
323.7 K, 101 kPa, x2 = 0.8	–	14.3 ± 4.3
324.1 K, 101 kPa, x2 = 0.6667	–	23.3 ± 7
333 K, 101 kPa, x2 = 0.6667	0.159 ± 0.032	–
333 K, 101 kPa, x2 = 0.75	0.14 ± 0.028	–
333.1 K, 101 kPa, x2 = 0.8	0.138 ± 0.028	–
333.7 K, 101 kPa, x2 = 0.75	–	11.8 ± 3.5
333.9 K, 101 kPa, x2 = 0.6667	–	15.9 ± 4.8
333.9 K, 101 kPa, x2 = 0.8	–	10.6 ± 3.2
342.9 K, 101 kPa, x2 = 0.75	0.197 ± 0.039	–
343.1 K, 101 kPa, x2 = 0.6667	0.211 ± 0.042	–
343.2 K, 101 kPa, x2 = 0.8	0.192 ± 0.038	–
343.8 K, 101 kPa, x2 = 0.75	–	8.6 ± 2.6
344 K, 101 kPa, x2 = 0.6667	–	11 ± 3.3
344 K, 101 kPa, x2 = 0.8	–	7.3 ± 2.2
353 K, 101 kPa, x2 = 0.6667	0.268 ± 0.053	–
353 K, 101 kPa, x2 = 0.75	0.278 ± 0.056	–
353 K, 101 kPa, x2 = 0.8	0.267 ± 0.053	–
353.8 K, 101 kPa, x2 = 0.8	–	5.7 ± 1.7
354 K, 101 kPa, x2 = 0.6667	–	8.6 ± 2.6
354.2 K, 101 kPa, x2 = 0.75	–	6.9 ± 2.1

CCC[N+](CCC)(CCC)CCC.[Br-] + OCCO
Conditions	electrical conductivity [S/m]	viscosity [mPa·s]
292.9 K, 101 kPa, x2 = 0.75	0.221 ± 0.044	–
292.9 K, 101 kPa, x2 = 0.8333	0.296 ± 0.059	–
293.1 K, 101 kPa, x2 = 0.8	0.274 ± 0.055	–
293.8 K, 101 kPa, x2 = 0.75	–	1505 ± 460
294 K, 101 kPa, x2 = 0.8333	–	980 ± 300
294.8 K, 101 kPa, x2 = 0.8	–	880 ± 270
302.8 K, 101 kPa, x2 = 0.8333	–	520 ± 160
303 K, 101 kPa, x2 = 0.75	0.327 ± 0.066	–
303 K, 101 kPa, x2 = 0.8	0.386 ± 0.077	–
303 K, 101 kPa, x2 = 0.8333	0.402 ± 0.08	–
303.4 K, 101 kPa, x2 = 0.8	–	560 ± 170
304 K, 101 kPa, x2 = 0.75	–	690 ± 210
312.5 K, 101 kPa, x2 = 0.8	0.53 ± 0.11	–
312.9 K, 101 kPa, x2 = 0.75	0.439 ± 0.088	–
313.1 K, 101 kPa, x2 = 0.8333	0.54 ± 0.11	–
313.7 K, 101 kPa, x2 = 0.75	–	320 ± 96
313.7 K, 101 kPa, x2 = 0.8	–	246 ± 74
313.7 K, 101 kPa, x2 = 0.8333	–	217 ± 65
318 K, 100 kPa, x2 = 0.75	–	26 ± 0.6
322.8 K, 101 kPa, x2 = 0.8	0.65 ± 0.13	–
322.9 K, 101 kPa, x2 = 0.8333	–	100 ± 30
323 K, 101 kPa, x2 = 0.75	0.57 ± 0.11	–
323.2 K, 101 kPa, x2 = 0.8333	0.77 ± 0.15	–
323.9 K, 101 kPa, x2 = 0.75	–	144 ± 43
323.9 K, 101 kPa, x2 = 0.8	–	107 ± 32
332.7 K, 101 kPa, x2 = 0.75	0.75 ± 0.15	–
333.2 K, 101 kPa, x2 = 0.8	0.85 ± 0.17	–
333.2 K, 101 kPa, x2 = 0.8333	0.82 ± 0.16	–
333.5 K, 101 kPa, x2 = 0.8333	–	49 ± 15
333.7 K, 101 kPa, x2 = 0.8	–	56 ± 17
334.1 K, 101 kPa, x2 = 0.75	–	71 ± 21
342.7 K, 101 kPa, x2 = 0.75	0.9 ± 0.18	–
343.1 K, 101 kPa, x2 = 0.8333	1.03 ± 0.21	–
343.2 K, 101 kPa, x2 = 0.8333	–	26.8 ± 8.1
343.6 K, 101 kPa, x2 = 0.75	–	42 ± 13
344 K, 101 kPa, x2 = 0.8	–	34 ± 10
352.8 K, 101 kPa, x2 = 0.75	–	19.5 ± 5.9
352.8 K, 101 kPa, x2 = 0.8	–	19.5 ± 5.9
352.8 K, 101 kPa, x2 = 0.8333	–	4.9 ± 1.5
353 K, 101 kPa, x2 = 0.8333	1.16 ± 0.23	–
353.2 K, 101 kPa, x2 = 0.75	1.04 ± 0.21	–
353.2 K, 101 kPa, x2 = 0.8	1.15 ± 0.23	–

CCC[N+](CCC)(CCC)CCC.[Br-] + OCCOCCOCCO
101 kPa
Conditions	electrical conductivity [S/m]	viscosity [mPa·s]
293 K, x2 = 0.75	–	117 ± 35
293.2 K, x2 = 0.75	0.078 ± 0.016	–
293.2 K, x2 = 0.8	0.066 ± 0.013	–
293.3 K, x2 = 0.7143	0.079 ± 0.016	–
294.8 K, x2 = 0.7143	–	118 ± 35
296.2 K, x2 = 0.8	–	81 ± 24
303.1 K, x2 = 0.7143	0.102 ± 0.02	–
303.1 K, x2 = 0.75	0.106 ± 0.021	–
303.3 K, x2 = 0.8	0.118 ± 0.024	–
303.4 K, x2 = 0.8	–	62 ± 18
303.6 K, x2 = 0.75	–	74 ± 22
304 K, x2 = 0.7143	–	78 ± 24
313.1 K, x2 = 0.75	0.155 ± 0.031	–
313.2 K, x2 = 0.7143	0.181 ± 0.036	–
313.2 K, x2 = 0.8	0.145 ± 0.029	–
313.3 K, x2 = 0.75	–	47 ± 14
313.9 K, x2 = 0.7143	–	49 ± 15
314.1 K, x2 = 0.8	–	38 ± 11
323 K, x2 = 0.75	0.214 ± 0.043	–
323.2 K, x2 = 0.8	0.206 ± 0.041	–
323.3 K, x2 = 0.7143	0.241 ± 0.048	–
323.3 K, x2 = 0.75	–	31.4 ± 9.4
323.7 K, x2 = 0.7143	–	33.1 ± 9.9
323.7 K, x2 = 0.8	–	25.7 ± 7.7
333.1 K, x2 = 0.7143	0.296 ± 0.059	–
333.2 K, x2 = 0.75	0.273 ± 0.055	–
333.2 K, x2 = 0.8	0.257 ± 0.051	–
333.3 K, x2 = 0.75	–	22.3 ± 6.7
333.7 K, x2 = 0.7143	–	21.1 ± 6.3
334.1 K, x2 = 0.8	–	17.7 ± 5.3
343.1 K, x2 = 0.7143	0.374 ± 0.075	–
343.1 K, x2 = 0.75	0.331 ± 0.066	–
343.2 K, x2 = 0.8	0.341 ± 0.068	–
343.8 K, x2 = 0.7143	–	16 ± 4.8
343.8 K, x2 = 0.75	–	15.4 ± 4.6
344 K, x2 = 0.8	–	12 ± 3.6
353 K, x2 = 0.7143	0.423 ± 0.085	–
353.1 K, x2 = 0.75	0.405 ± 0.081	–
353.4 K, x2 = 0.8	0.375 ± 0.075	–
353.6 K, x2 = 0.7143	–	13.1 ± 3.9
353.6 K, x2 = 0.75	–	11.4 ± 3.4
353.8 K, x2 = 0.8	–	9.7 ± 2.9

— the CheMixHub ionic liquid set
